In brackets after ≈: the same amount, converted by molar mass. Like-named read-outs stand apart in the source and are kept apart here.
Tested on: S. aureus ATCC 29213
Assay: microbe, parasite or virus in culture
Details: Staphylococcus aureus

**Q.** Which MIC (ATCC29213, read-out: MIC 1) does the source give for `CN[C@H](CC(C)C)C(=O)N[C@H]1C(=O)N[C@@H](CC(N)=O)C(=O)N[C@H]2C(=O)N[C@H]3C(=O)N[C@H](C(=O)N[C@H](C(=O)O)c4cc(O)cc(O)c4-c4cc3ccc4O)[C@H](O)c3ccc(c(Cl)c3)Oc3cc2cc(c3O[C@@H]2O[C@H](CO)[C@@H](O)[C@H](O)[C@H]2O[C@H]2C[C@](C)(N)[C@H](O)[C@H](C)O2)Oc2ccc(cc2Cl)[C@H]1O` [Vancomycin] here?
**A.** 0.5 µg/mL (≈ 0.345 µM)

**Q.** And the MIC (ATCC29213, read-out: MIC 2)?
**A.** 1 µg/mL (≈ 0.69 µM)

**Q.** And the MIC (ATCC29213, read-out: MIC 3)?
**A.** 1 µg/mL (≈ 0.69 µM)

**Q.** What about the MIC (ATCC29213, read-out: MIC 4) of the same compound?
**A.** 1 µg/mL (≈ 0.69 µM)

**Q.** And the MIC (ATCC29213, read-out: MIC 5)?
**A.** 1 µg/mL (≈ 0.69 µM)

Source: patent publication US11801272B2, “Bacillus strains improving health and performance of production animals” (Novozymes A/S, priority 2015, dated 2023)
